The list shows a part of the results, in another mix than the full data. Activity calls are given as the source filed them. No stated cut-off is given here; in the data, active means activation fold above about 2; inactive means the rest.
Target: Alkaline phosphatase, placental type (Homo sapiens) (UniProt P05187)
Assay: PLAP enzyme activators, biochemical, luminescence, HTS (AID 696)
Details: purified PLAP enzyme, luminescent substrate read-out; at 20 µM; stronger effect = higher value

Chains of the proteins cited; added tags and fusions are not shown.
UniProt P05187, whole entry: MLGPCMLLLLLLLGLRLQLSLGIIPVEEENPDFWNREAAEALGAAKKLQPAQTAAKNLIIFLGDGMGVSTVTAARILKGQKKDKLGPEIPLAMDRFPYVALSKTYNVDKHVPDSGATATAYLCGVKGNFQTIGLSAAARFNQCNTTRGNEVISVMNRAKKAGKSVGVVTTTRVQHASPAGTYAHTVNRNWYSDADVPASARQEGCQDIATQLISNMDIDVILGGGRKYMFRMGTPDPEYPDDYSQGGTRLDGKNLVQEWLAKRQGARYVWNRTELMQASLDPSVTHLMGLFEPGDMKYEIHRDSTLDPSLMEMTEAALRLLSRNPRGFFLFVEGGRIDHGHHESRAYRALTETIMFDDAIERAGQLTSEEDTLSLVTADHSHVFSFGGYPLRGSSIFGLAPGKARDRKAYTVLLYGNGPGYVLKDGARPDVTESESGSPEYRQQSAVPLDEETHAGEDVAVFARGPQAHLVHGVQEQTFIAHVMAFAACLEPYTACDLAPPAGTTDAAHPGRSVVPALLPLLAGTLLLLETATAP

Structure (SMILES)	activation fold
CP(=O)(NC(=O)Nc1ccccc1)Oc1ccccc1 (configuration not stated)	inactive: 1.1
CP(=O)(Nc1ccccn1)Oc1ccc(Cl)cc1 (configuration not stated)	inactive: 1
CCOP(C)(=S)SCC(=O)NC(C)C(=O)O (configuration not stated)	inactive: 1.2
CP(=S)(Nn1cnnc1)Oc1ccccc1 (configuration not stated)	inactive: 0.7
COc1ccc(OP(C)(=O)Nc2cccc(F)c2)cc1 (configuration not stated)	inactive: 1.1
COc1ccccc1OP(C)(=O)Nc1ccc(C)cc1 (configuration not stated)	inactive: 0.9
Cc1ccc(NP(C)(=O)Oc2ccccc2)c(C)c1 (configuration not stated)	inactive: 1.4
Cc1cc(C)cc(OP(C)(=O)Nc2ccc(C)cc2C)c1 (configuration not stated)	inactive: 1.2
Cc1ccc(C)c(NP(C)(=O)Oc2ccccc2)c1 (configuration not stated)	inactive: 1.1
Cc1cc(C)cc(OP(C)(=O)Nc2ccccn2)c1 (configuration not stated)	inactive: 0.7
COc1ccccc1OP(C)(=O)Nc1c(C)cccc1C (configuration not stated)	inactive: 0.8
Cc1nc2ccc3ccccc3c2s1.O=[N+]([O-])c1cc([N+](=O)[O-])c(O)c([N+](=O)[O-])c1	inactive: 0.8
CCOP(C)(=S)SCC(=O)NC(C)(CC)C(=O)O (configuration not stated)	inactive: 1.1
Cc1ccccc1NP(C)(=O)Nc1ccccc1C	inactive: 0.9
CN(C)CCOC(=O)C(O)(c1ccccc1)C1CCCCC1 (configuration not stated)	inactive: 1
COc1ccc(OP(C)(=O)Nc2cccc(Br)c2)cc1 (configuration not stated)	inactive: 0.9

Structure (SMILES)	activation fold
CP(=O)(Nc1ccccc1)Oc1ccc(F)cc1 (configuration not stated)	inactive: 1.1
CP(=O)(Nc1ccccc1F)Oc1ccccc1 (configuration not stated)	inactive: 0.8
COc1ccc(OP(C)(=O)Nc2ccccn2)cc1 (configuration not stated)	inactive: 0.9
CN(C)CCOC(=O)C(O)(c1ccccc1)C1CCCC1 (configuration not stated)	inactive: 1.1
CP(=O)(Nc1ccccn1)Oc1ccccc1 (configuration not stated)	inactive: 0.8
COc1ccccc1OP(C)(=O)Nc1ccc(C)cc1C (configuration not stated)	inactive: 1
CCc1ccc(OP(C)(=O)O)cc1	inactive: 1.7
Cc1c(NP(C)(=O)Oc2ccc(C(C)C)cc2)c(=O)n(-c2ccccc2)n1C (configuration not stated)	inactive: 1.4
COc1ccccc1OP(C)(=O)Nc1ccc(C)c(C)c1 (configuration not stated)	inactive: 1
Cc1nc2ccc3ccccc3c2o1.O=[N+]([O-])c1cc([N+](=O)[O-])c(O)c([N+](=O)[O-])c1	inactive: 1
CP(=O)(OC12CC3CC(CC(C3)C1)C2)OC12CC3CC(CC(C3)C1)C2	inactive: 1.6
COc1ccccc1OP(C)(=O)Nc1c(C)n(C)n(-c2ccccc2)c1=O (configuration not stated)	inactive: 0.9
CP(=O)(Oc1ccccc1)N1CCOC1=O (configuration not stated)	inactive: 0.9
CCN(CC)CC(O)COC(=O)C(O)(c1ccccc1)C1CCCCC1 (configuration not stated)	inactive: 1.3
CC(C)(C)c1ccc(OP(C)(=O)O)cc1	inactive: 1.3
CP(=O)(Nc1ccc(Cl)cc1)Oc1ccc(F)cc1 (configuration not stated)	inactive: 1.1

From PubChem BioAssay AID696 (Sanford-Burnham Center for Chemical Genomics, 2007)
